Test results reported in US6596312B1, “Hydrolyzed cellulose granulations of salts of drugs” (R.P. Scherer Technologies, Inc., priority 1999, dated 2003).

Assay: Solubility of ibuprofen forms as a function of pH (FIG. 1)
Assay type: physicochemical
Conditions: pH below about 6.0 (FIG. 1)

With `CC(C)Cc1ccc(C(C)C(=O)O)cc1` (stereo not shown) [unprocessed ibuprofen, ibuprofen] the “dissolution when the pH is below about 6.0” value was “no appreciable dissolution”.
